Assay results from US20090105270A1, “Kinase inhibition and anticancer therapy” (priority 2007, published 2009).

Protein sequences, listed by entry. Tags and fused reporters are not part of them. Lines headed by an entry give the natural chain unless they say otherwise; changes in a name come on top.
UniProt Q15831: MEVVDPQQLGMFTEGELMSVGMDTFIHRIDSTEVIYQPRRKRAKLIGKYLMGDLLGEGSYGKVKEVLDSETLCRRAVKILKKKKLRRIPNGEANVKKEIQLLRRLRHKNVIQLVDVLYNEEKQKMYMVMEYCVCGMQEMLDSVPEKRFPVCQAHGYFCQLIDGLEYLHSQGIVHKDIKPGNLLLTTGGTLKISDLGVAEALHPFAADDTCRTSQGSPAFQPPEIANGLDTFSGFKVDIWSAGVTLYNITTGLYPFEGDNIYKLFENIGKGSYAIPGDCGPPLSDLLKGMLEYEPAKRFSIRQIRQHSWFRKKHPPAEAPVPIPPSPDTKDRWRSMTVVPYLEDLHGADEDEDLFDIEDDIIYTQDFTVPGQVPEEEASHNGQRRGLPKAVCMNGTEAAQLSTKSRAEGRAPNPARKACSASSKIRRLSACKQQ
UniProt Q99683: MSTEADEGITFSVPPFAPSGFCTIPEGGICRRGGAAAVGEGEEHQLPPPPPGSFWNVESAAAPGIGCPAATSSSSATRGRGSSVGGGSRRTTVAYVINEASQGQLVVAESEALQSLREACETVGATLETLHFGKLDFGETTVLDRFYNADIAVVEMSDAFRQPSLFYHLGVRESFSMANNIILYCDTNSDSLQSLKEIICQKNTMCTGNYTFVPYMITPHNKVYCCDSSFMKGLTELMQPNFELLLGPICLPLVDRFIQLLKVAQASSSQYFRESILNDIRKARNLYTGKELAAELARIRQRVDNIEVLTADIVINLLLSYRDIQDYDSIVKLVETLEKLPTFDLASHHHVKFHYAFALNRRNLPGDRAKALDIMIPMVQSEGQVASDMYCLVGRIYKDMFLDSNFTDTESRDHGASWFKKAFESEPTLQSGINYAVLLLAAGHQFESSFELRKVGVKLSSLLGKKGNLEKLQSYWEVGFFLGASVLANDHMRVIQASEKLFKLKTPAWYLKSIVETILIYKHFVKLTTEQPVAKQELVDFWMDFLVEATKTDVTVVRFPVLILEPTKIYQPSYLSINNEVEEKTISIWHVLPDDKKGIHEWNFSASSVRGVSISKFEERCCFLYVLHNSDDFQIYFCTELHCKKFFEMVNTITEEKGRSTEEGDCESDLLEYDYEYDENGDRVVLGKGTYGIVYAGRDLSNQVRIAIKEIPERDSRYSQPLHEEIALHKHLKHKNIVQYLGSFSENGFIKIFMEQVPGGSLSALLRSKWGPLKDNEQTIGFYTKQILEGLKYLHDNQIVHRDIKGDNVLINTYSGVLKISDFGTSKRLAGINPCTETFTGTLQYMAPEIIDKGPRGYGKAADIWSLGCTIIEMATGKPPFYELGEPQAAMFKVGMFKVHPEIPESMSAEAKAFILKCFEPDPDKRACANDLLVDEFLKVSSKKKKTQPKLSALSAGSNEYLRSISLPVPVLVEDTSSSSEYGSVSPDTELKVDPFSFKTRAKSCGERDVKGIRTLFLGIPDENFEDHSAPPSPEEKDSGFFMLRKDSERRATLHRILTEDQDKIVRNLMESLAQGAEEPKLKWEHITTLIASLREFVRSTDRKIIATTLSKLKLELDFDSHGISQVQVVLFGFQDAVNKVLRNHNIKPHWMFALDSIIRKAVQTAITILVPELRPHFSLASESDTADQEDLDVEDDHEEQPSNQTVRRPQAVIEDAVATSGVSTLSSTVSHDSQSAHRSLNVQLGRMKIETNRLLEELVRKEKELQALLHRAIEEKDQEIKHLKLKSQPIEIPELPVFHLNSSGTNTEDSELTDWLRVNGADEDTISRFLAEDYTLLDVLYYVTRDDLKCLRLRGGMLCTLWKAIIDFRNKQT
UniProt Q96SB4, whole entry: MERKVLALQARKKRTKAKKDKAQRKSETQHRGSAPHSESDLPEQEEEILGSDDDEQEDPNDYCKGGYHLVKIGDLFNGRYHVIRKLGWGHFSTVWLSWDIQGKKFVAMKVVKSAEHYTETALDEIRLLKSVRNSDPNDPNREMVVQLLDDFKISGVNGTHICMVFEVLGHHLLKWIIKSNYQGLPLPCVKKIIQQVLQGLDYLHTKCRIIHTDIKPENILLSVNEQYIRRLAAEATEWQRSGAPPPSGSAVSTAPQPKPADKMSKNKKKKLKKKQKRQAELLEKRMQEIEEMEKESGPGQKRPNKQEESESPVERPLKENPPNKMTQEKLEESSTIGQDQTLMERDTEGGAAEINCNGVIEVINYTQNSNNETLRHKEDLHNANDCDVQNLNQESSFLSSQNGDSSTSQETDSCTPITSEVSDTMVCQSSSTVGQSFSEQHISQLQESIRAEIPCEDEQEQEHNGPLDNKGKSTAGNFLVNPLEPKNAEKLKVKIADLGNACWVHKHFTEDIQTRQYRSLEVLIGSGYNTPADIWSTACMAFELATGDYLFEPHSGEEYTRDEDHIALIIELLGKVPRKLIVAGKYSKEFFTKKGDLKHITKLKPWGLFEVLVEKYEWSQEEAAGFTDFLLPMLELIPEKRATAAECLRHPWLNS
UniProt Q05655: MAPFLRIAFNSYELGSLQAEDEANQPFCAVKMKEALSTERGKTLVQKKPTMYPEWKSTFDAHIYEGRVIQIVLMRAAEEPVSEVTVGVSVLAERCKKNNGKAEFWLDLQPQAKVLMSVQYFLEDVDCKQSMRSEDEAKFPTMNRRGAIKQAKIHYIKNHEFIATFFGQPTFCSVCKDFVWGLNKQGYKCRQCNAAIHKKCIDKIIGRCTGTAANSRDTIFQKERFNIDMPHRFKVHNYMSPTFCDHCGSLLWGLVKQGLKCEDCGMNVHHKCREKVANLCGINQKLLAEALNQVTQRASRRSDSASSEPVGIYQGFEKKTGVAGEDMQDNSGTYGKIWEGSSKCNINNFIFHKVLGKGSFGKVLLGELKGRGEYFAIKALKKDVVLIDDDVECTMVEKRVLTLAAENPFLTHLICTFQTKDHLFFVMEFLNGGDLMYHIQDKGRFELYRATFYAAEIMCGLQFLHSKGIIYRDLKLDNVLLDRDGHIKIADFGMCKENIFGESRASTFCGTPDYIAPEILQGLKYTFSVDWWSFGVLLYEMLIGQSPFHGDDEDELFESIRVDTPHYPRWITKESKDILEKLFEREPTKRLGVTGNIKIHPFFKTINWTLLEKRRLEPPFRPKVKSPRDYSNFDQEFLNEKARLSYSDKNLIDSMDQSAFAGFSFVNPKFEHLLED
UniProt Q16539, whole entry T106M: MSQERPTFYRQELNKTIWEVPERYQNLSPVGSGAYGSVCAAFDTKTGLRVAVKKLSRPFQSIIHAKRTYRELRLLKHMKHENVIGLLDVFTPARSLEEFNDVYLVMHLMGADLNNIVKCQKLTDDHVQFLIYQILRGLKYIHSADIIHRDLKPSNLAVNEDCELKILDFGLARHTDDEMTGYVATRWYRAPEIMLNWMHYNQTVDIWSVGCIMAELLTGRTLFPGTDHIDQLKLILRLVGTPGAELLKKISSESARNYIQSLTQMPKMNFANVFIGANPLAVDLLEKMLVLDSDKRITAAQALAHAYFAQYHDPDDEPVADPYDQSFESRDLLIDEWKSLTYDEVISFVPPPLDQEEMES
UniProt Q00535, whole entry: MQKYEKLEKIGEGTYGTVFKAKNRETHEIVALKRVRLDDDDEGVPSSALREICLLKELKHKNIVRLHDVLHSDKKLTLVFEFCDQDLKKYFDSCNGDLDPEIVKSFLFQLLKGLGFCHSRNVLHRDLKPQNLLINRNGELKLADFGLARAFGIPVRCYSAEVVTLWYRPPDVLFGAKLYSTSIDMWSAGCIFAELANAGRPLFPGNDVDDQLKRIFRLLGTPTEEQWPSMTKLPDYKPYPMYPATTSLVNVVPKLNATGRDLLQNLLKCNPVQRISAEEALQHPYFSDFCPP

Columns and labels:
LKB1(h) = LKB1(h) (Homo sapiens, UniProt Q15831); experiment: biochemical; details: 40 min, read-out: percentage of enzyme activity that remains
ASK1(h) = ASK1(h) (Homo sapiens, UniProt Q99683); experiment: biochemical; details: 40 min, read-out: percentage of enzyme activity that remains
EGFR(L861Q)(h) = target: T1, EGFR(L861Q)(h) (Homo sapiens, UniProt P00533, L861Q); experiment: Upstate kinase activity inhibition assay EGFR(L861Q)(h); format: biochemical; details: 0.2 μM Compound E
T1 construct: purchased Upstate (KinaseProfiler service)

CDK2/cyclinE(h) = target: T2, CDK2/cyclinE(h) (Homo sapiens, UniProt P24941); experiment: Upstate kinase activity inhibition assay CDK2/cyclinE(h); format: biochemical; details: 0.2 μM Compound E
T2 construct: purchased Upstate (KinaseProfiler service)

EGFR(h) = EGFR(h) (Homo sapiens, UniProt P00533); experiment: Upstate kinase activity inhibition assay EGFR(h); details: 4 μM Compound E
SRPK1(h) = SRPK1(h) (Homo sapiens, UniProt Q96SB4); experiment: biochemical; details: 40 min, read-out: percentage of enzyme activity that remains
PKCδ(h) = PKCδ(h) (Homo sapiens, UniProt Q05655); experiment: biochemical; details: 40 min, read-out: percentage of enzyme activity that remains
SAPK2a(T106M)(h) = SAPK2a(T106M)(h) (Homo sapiens, UniProt Q16539, T106M); details: 4 μM Compound E
CDK5/p35(h) = CDK5/p35(h) (Homo sapiens, UniProt Q00535); experiment: biochemical; details: 40 min, read-out: percentage of enzyme activity that remains
CDK5/p25(h) = target: T3, CDK5/p25(h) (Homo sapiens, UniProt Q00535); experiment: Upstate kinase activity inhibition assay CDK5/p25(h); format: biochemical; details: 40 min; read-out: percentage of enzyme activity that remains
T3 construct: purchased Upstate (KinaseProfiler service)

Question: How did the remaining activity at 4 µM (LKB1(h)) turn out when `Cc1cc(Nc2cc(N3CCN(C)CC3)nc(Sc3ccc(NC(=O)C4CC4)cc3)n2)n[nH]1` [Compound E, Cyclopropane carboxylic acid {4-[4-(4-methyl-piperazin-1-yl)-6-(5-methyl-2H-pyrazol-3-ylamino)-pyrimidin-2-ylsulphanyl]-phenyl}-amide] was run?
Answer: 100%

Question: And the remaining activity at 4 µM (ASK1(h))?
Answer: 103%

Question: And the “percentage of enzyme activity that remains” value (EGFR(L861Q)(h))?
Answer: 108%

Question: And the “percentage of enzyme activity that remains” value (CDK2/cyclinE(h))?
Answer: 108%

Question: And the “percentage of enzyme activity that remains” value (EGFR(h))?
Answer: 98%

Question: And the remaining activity at 0.2 µM (SRPK1(h))?
Answer: 107%

Question: What about the remaining activity at 0.2 µM (PKCδ(h)) of the same molecule?
Answer: 91%

Question: What about the “percentage of enzyme activity that remains” value (SAPK2a(T106M)(h)) of the same molecule?
Answer: 103%

Question: What about the remaining activity at 0.2 µM (CDK5/p35(h)) of the same molecule?
Answer: 102%

Question: What about the remaining activity at 0.2 µM (CDK5/p25(h)) of the same molecule?
Answer: 98%

Question: What about the remaining activity at 4 µM (CDK5/p25(h)) of the same molecule?
Answer: 102%
